# Source: patent publication US7332519B2, “Spirocyclic cyclohexane compounds” (dated 2008)
# Amino acid sequences for entries named in this document (tags omitted). A change or cut given only in a name is not applied to a line headed by its entry.
# UniProt P41146: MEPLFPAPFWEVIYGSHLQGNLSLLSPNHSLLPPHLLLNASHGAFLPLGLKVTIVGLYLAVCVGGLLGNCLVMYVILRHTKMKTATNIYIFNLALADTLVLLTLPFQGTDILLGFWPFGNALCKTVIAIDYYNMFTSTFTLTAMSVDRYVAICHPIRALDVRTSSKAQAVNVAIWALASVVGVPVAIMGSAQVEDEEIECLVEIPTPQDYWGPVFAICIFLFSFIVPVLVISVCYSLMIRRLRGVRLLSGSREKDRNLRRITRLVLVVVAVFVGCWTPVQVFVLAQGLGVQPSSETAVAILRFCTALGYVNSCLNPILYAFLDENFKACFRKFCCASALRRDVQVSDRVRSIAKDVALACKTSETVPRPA
# UniProt P35372: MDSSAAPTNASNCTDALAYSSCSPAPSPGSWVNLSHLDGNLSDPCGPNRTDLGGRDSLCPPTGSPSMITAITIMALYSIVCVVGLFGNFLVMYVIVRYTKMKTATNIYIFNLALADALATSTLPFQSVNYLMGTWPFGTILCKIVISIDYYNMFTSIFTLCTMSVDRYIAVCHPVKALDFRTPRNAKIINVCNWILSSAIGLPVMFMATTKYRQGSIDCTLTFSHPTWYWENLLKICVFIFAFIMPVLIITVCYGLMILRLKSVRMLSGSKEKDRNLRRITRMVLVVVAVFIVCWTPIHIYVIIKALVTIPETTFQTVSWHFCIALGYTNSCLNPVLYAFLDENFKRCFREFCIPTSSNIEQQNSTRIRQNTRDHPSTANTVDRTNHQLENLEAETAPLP
# Key:
# ORL1 receptor = ORL1 receptor (Homo sapiens, UniProt P41146); experiment: Measurement of ORL1 binding, 3H-nociceptin/orphanin FQ receptor binding assay with membranes of recombinant CHO-ORL1 cells; conditions: 0.5 nM 3H-nociceptin/orphanin FQ, test concentration not given
# human μ-opiate receptor = human μ-opiate receptor (Homo sapiens, UniProt P35372); experiment: Measurement of the μ-bond, [3H]-Naloxon displacement, membrane preparation of CHO-K1 cells expressing the receptor; conditions: for ORμ_Nal % inhibition: test substance 1 μmole/liter
# male NMRI-mice = experiment: Mouse jumping test (naloxone-precipitated withdrawal, physical dependence capacity); conditions: 7 i.p. injections over two days, 30 mg/kg naloxone i.p., jumps 0-10 min
# mice = experiment: Muscle relaxation and anesthesia in mice; conditions: at higher doses
compound,measurement,setting,value
"1,1-[3-dimethylamino-3-(pyridin-2-yl)pentamethylene]-3,4-dihydro-1H-2-oxa-9-thiafluorene Citrate",ORL1 % inhibition,ORL1 receptor,49%
same,pKi,"human μ-opiate receptor; read-out: ORμ_Nal Ki, Cheng-Prusoff conversion",6.85
CN(C)C1(c2cccs2)CCC2(CC1)OCCc1c2[nH]c2ccccc12 (centres unmarked),jumping (withdrawal after naloxone),male NMRI-mice,completely suppressed
same,muscle relaxation and anesthesia,mice,induces muscle relaxation and anesthesia
"1,1-[3-dimethylamino-3-(2-thienyl)pentamethylene]-1,3,4,9-tetrahydro-pyrano[3,4-b]-6-fluoroindole Citrate",ORL1 % inhibition,ORL1 receptor,41%
same,ORμ_Nal % inhibition,human μ-opiate receptor,53%
"1,1-[3-dimethylamino-3-(2-thienyl)pentamethylene]-1,3,4,9-tetrahydro-pyrano[3,4-b]indole Dimethanesulfonate",ORL1 % inhibition,ORL1 receptor,37%
same,ORμ_Nal % inhibition,human μ-opiate receptor,47%

# pKi: −log10 of the molar value.
